Laboratory results reported in patent US8084467B2, “Pyrazole derivatives as cannabinoid receptor antagonists” (University of Connecticut, priority 2004, dated 2011).

Sequences of proteins named here, by UniProt entry; tags and fusion partners are left off.
UniProt P20272, whole entry: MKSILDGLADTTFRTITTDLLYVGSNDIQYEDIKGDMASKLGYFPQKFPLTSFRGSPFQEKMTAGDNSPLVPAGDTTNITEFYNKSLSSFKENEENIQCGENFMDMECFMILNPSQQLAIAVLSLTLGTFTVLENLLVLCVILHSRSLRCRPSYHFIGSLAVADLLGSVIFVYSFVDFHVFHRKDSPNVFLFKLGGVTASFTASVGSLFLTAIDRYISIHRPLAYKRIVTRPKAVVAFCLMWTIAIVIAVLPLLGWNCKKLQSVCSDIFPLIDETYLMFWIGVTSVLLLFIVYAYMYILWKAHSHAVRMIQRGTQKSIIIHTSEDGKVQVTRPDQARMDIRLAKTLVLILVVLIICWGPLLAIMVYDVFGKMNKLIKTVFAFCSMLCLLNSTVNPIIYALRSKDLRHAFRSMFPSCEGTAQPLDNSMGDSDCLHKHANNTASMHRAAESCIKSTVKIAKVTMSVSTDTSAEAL

Target: T1, CB1 cannabinoid receptor (Rattus norvegicus, UniProt P20272)
T1 construct: membranes were prepared from rat forebrain membranes; from tissue; host or cells: rat forebrain
Assay: CB1 receptor binding, rat forebrain membranes, [3H] CP-55,940 displacement
Details: ratio of CB2 Ki to CB1 Ki
Protocol: Some of the inventive analogs were tested for CB2 receptor binding affinity and for CB1 receptor affinity (to determine selectivity). […] The lower the Ki value the higher the binding affinity. […]
Membranes, previously frozen at −80° C., were thawed on ice. To the stirred suspension was added three volumes of TME (25 mM Tris-HCl buffer, 5 mM MgCl2 and 1 mM EDTA) at a pH 7.4. The suspension was incubated at 4° C. for 30 min. At the end of the incubation, the membranes were pelleted and washed three times with TME.
The treated membranes were subsequently used in the binding assay described below. Approximately 30 μg of membranes were incubated in silanized 96-well microtiter plate with TME containing 0.1% essentially fatty acid-free bovine serum albumin (BSA), 0.8 nM [^3H] […] Radioactivity was detected using MicroScint 20 scintillation cocktail added directly to the dried filterplates, and the filterplates were counted using a Packard Instruments Top-Count. […] Data collected from three independent experiments performed with duplicate determinations was normalized between 100% and 0% specific binding for [^3H] […] The normalized data was analyzed using a 4-parameter nonlinear logistic equation to yield IC50 values.

SMILES: Cc1c(C(=O)Nc2ccc3ccccc3c2)nn(CCCCCCl)c1-c1ccccc1 [Compound 4-3]
- selectivity CB1: 1

SMILES: Cc1c(C(=O)NC2C3CC4CC(C3)CC2C4)nn(CCCCCCl)c1-c1ccccc1 (centres unmarked) [Compound 4-4]
- selectivity CB1: 1.1
